Laboratory results taken from patent US20070134231A1, “Method for prolonging activity of autodegradable enzymes and compositions thereof” (priority 2005, published 2007).

The chains behind the UniProt entries cited, without tags or fusion partners. Residues count along the entry.
UniProt P00747, 97-580 limits assumed: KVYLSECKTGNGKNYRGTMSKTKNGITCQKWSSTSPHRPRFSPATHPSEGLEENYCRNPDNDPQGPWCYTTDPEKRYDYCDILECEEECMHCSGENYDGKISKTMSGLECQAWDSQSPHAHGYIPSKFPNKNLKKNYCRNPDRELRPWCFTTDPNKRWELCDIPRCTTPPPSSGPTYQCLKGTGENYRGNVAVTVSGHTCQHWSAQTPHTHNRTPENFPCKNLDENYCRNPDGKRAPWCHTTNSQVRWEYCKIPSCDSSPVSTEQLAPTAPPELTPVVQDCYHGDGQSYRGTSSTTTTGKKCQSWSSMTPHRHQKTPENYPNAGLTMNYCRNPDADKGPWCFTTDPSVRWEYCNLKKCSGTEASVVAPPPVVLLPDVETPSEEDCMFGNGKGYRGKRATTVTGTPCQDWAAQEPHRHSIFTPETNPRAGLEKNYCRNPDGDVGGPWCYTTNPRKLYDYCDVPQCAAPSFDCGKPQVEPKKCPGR
UniProt P00747, 581-810 limits assumed: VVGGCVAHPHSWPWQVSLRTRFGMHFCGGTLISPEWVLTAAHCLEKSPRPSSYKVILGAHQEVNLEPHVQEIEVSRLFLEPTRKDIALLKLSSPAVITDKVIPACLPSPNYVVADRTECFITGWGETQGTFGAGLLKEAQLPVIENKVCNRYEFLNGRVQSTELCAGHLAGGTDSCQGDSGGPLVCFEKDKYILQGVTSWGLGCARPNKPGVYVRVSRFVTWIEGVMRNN

Biological target: T1, human plasmin (Homo sapiens, UniProt P00747)
T1 construct: which cleave a single-chain plasminogen molecule at the Arg^560 -Val^561 peptide bond, producing active plasmin; purchased Talecris, Inc. (Research Triangle Park, North Carolina)
Assay: Plasmin precipitation study in buffer solutions (PBS, pH of about 7.4)
Type: physicochemical
Conditions: plasmin 1 mg/ml, observed within 2 hours
Description: This acidified, lyophilized plasmin was reconstituted with 0.9% (by weight) NaCl solution to a concentration of 10 mg/ml. […] Combinations of ε-aminocaproic acid and gelatin or glycerin were also tested. The concentration of plasmin in the additive-containing buffer was 1 mg/ml.

## HSA: human serum albumin
  Concentration Range Tested That Did Not Prevent Precipitation at pH of About 7.4: 5% (w/v)
